Common to all, as to assay type: cell-based
The test system of data set [1] is panel of cancer and normal cell lines. The data set can be described thus: Live/Dead cytotoxicity assay, panel of cancer and non-cancer cell lines. Particulars: example: non-cancer epidermis derived cell line CCD-27sk. Here is the method: (§1) AR40A603.13 was compared to a number of both positive (anti-EGFR (C225, IgG1, kappa, 5 μg/mL, Cedarlane, Homby, ON), cycloheximide (CHX, 0.5 μM, Sigma, Oakville, ON), and NaN3 (0.1%, Sigma, Oakville, ON)) and negative (107.3 (anti-TNP), IgG1, kappa, 20 μg/mL, BD Bioscience, Oakville, ON), and IgG Buffer (3%)) controls in a cytotoxicity assay (FIG. 3). Breast (MDA-MB-231 (MB-231), NCI-MCF-7 (MCF-7)), colon (DLD-1, Lovo, SW1116), ovarian (OVCAR-3), pancreatic (BxPC-3), and prostate (PC-3, LnCap, DU-145) cancer, and non-cancer skin (CCD-27sk), and lung (Hs888.Lu) cell lines were tested (all from the ATCC, Manassas, Va.). […] The data was represented as an average of four experiments tested in triplicate and is presented qualitatively in the following fashion: ¾ to 4/4 experiments with >15% cytotoxicity above background (++++), 2/4 experiments with >15% cytotoxicity above background (+++), at least 2/4 experiments with 10-15% cytotoxicity above background (++), at least 2/4 experiments with 8-10% cytotoxicity above background (+), 7% cytotoxicity above background (+/−). Unmarked cells in FIG. 3 represented inconsistent or effects less than the threshold cytotoxicity. […] The chemical cytotoxic agents induced their expected non-specific cytotoxicity.

For data set [2], the system named is BxPC-3 pancreatic cancer cell line. The experiment in a line: Live/Dead cytotoxicity assay of purified antibody. To be noted: 5 days, anti-EGFR 5 μg/mL. Here is the method:
as §1

Data set [3] has as its system SW1116 colon cancer cell line. The experiment in a line: Live/Dead cytotoxicity assay of purified antibody. To be noted: 5 days, anti-EGFR 5 μg/mL. How it is done: as §1
The subject of data set [4] is MCF-7 breast cancer cell line. The experiment in a line: Live/Dead cytotoxicity assay of purified antibody. Particulars: 5 days, anti-EGFR 5 μg/mL. Here is the method:
as §1

On to “anti-EGFR: positive control antibody anti-EGFR (C225, IgG1, kappa, Cedarlane)”, for which the “correlation between binding and cytotoxicity” value in data set [1] was “higher correlation between binding and cytotoxicity”. The “cytotoxicity relative to isotype and buffer negative controls” value in data set [2], in data set [3] and in data set [4] was “not affected” in each case.

Source of the values: patent US7348413B2, “Cancerous disease modifying antibodies” (Arius Research Inc., priority 2004, dated 2008).
